Assay results: paper PMC9816242, “Human metabolism and excretion kinetics of benzotriazole UV stabilizer UV-327 after single oral administration” (Archives of Toxicology, 2022)

Assays:
[1] = UV-327 and metabolites in plasma of one volunteer after single oral administration of UV-327; conditions: single oral 0.3 mg/kg UV-327, n = 1
[2] = UV-327 and metabolites in whole blood of volunteers after single oral administration of UV-327; conditions: for t1/2 phase 1 (elimination half-life) / t1/2 phase 2 (elimination half-life): single oral 0.3 mg/kg UV-327, n = 3, mean ± SD; for t1/2 phase 2 (elimination half-life): terminal phase; for tmax (time point of maximum blood level): single oral 0.3 mg/kg UV-327, n = 3

| Molecule | maximum plasma level [1] | t1/2 phase 1 (elimination half-life) [2] | t1/2 phase 2 (elimination half-life) [2] | time of maximum plasma level [1] | tmax (time point of maximum blood level) [2] |
| --- | --- | --- | --- | --- | --- |
| CC(C)(C)c1cc(-n2nc3ccc(Cl)cc3n2)c(O)c(C(C)(C)C)c1 [UV-327, 2-(5-chloro-benzotriazol-2-yl)-4,6-di-(tert-butyl)phenol] | 1261 µg/L | 6.6 ± 0.3 h | 24.9 ± 1.9 h |  |  |
| 2-(5-chloro-benzotriazol-2-yl)-4-(1-hydroxy-2-methylpropyl)-6-(tert-butyl)phenol [UV-327-4-mOH] | 0.55 µg/L | 10.8 ± 0.3 h | 33.0 ± 0.2 h | 6 h | 6 h |
| 2-(5-chloro-benzotriazol-2-yl)-6-(1-hydroxy-2-methylpropyl)-4-(tert-butyl)phenol [UV-327-6-mOH] | 0.58 µg/L | 9.9 ± 1.0 h | 29.0 ± 1.1 h | 6 h | 6 h |
